Source: patent US20260384436A1, “POLYMORPHS OF NEK 7 INHIBITORS” (published 2026)

Key:
[1] = Form change on ambient drying or ambient storage (XRPD); settings: for form change before and after ambient drying: ambient drying overnight, XRPD
Method: (§1) For XRPD analysis, PANalytical X-ray powder diffractometer was used.
Solid form Type B was obtained via addition of 2.0 mL n-heptane as anti-solvent into 0.5 mL EtOAc solution of starting material.
Solid form Type J was obtained via slow evaporation of starting material CHCl3 solution. […] Based on the limited TGA weight loss, neat DSC signals and minor solvent residue in ^1H NMR spectrum, solid form Type J was assigned as an anhydrate. Moreover, solid form Type J could convert to solid form Type L when stored under ambient condition with about ~45% RH overnight.

[2] = Approximate solubility of starting material at room temperature
Method: Approximate solubility of starting material was tested in 20 solvents at room temperature. In the experiments, ~2 mg solids were weighted into each 3 mL glass vial, corresponding solvent was then added stepwise (50/50/100/200/600/1000 μL) to see if solids dissolved completely. Solvent addition was halted when the solids dissolved, or total volume reached 2.0 mL. Approximate solubility was calculated based on the mass of solids and solvent volume. Solubility results were summarized in the table below, which was used to guide the solvent selection in the polymorph screening design.

[3] = Heating experiment / VT-XRPD for solid form stability
Method: as §1
VT-XRPD was performed on solid form Type A for form identification. According to the VT-XRPD result in FIG. 6, form change from solid form Type A into another new form, named as solid form Type O, was initially observed upon N2 sweeping and finished when heated to 100 °C. Based on the ^1H NMR spectrum and VT-XRPD result, solid form Type A was assigned as a hydrate.
Heating experiment was performed on solid form Type B for form identification. According to the XRPD result in FIG. 9, no form change was observed before and after heating solid form Type B to 150 °C and cooling it down to RT. Based on limited TGA weight loss, neat DSC curve, minor solvent residue in ^1H NMR and the heating experiment result, solid form Type B was assigned as an anhydrate.
Heating experiment was performed on solid form Type C for form identification. According to the result shown in FIG. 14 and ^1H NMR, after heating solid form Type C to 115 °C and cooling it down to RT, no form change was observed and the molar ratio of residual THF to API were 0.24 (3.3 wt %). According to the VT-XRPD result in FIG. 15, decrease of crystallinity was observed when heated to 120 °C and amorphization was observed when heated to 175 °C. Based on the above experimental results, solid form Type C was assigned as a (THF) solvate. As the XRPD pattern was also observed in other solvents (e.g., isoamyl alcohol, 1-pentanol and 2-MeTHF), isomorphism may exist for this form.
Heating experiment was performed on solid form Type D for form identification. According to the heating experiment result in FIG. 18, amorphization was observed after heating solid form Type D to 175 °C and cooling it down to RT. According to the solvent residue determined by ^1H NMR, TGA weight loss and heating experiment results, solid form Type D was assigned as an IPA solvate.
(§2) Heating experiment was performed on solid form Type E for form identification. According to the heating experiment result in FIG. 21, solid form Type E changed to amorphous when heated to 165 °C and cooled to RT. According to the solvent residue determined by 1H NMR, TGA weight loss and heating experiment results, solid form Type E was assigned as an m-Xylene solvate.
Heating experiment was performed on solid form Type F for form identification. […] According to the solvent residue determined by ^1H NMR, TGA weight loss and heating experiment results, solid form Type F was assigned as a DMSO solvate.
as §2, with “G” for “E”, “27,” for “21,”, “175” for “165”, “a 2-BuOH” for “an m-Xylene”
Heating experiment was performed on solid form Type H for form identification. According to the heating experiment result in FIG. 30, solid form Type H changed to amorphous when heated to 150 °C and cooled to RT. According to the TGA weight loss, solvent residue in NMR and heating experiment results, solid form Type H was assigned as a hydrate.
Heating experiment was performed on solid form Type I for form identification. According to the heating experiment result in FIG. 33, form change was observed when solid form Type I was heated to 100 °C and cooled to RT and DCM was absent in the heated sample. The obtained sample was named as solid form Type P. According to the ^1H NMR spectra and heating experiment result, solid form Type I was assigned as DCM solvate. Considering solid form Type I was also obtained in ACN slurry system, there might exist isomorphism.
Heating experiment was performed on solid form Type K for form identification. […]

[4] = Slurry competition of solid form Types B and Q (thermodynamic relationship); settings: starting forms Type B/Q
Method: Slurry competition experiments were applied for solid form Type B and Q in ethyl acetate/n-heptane at 5 °C/RT/50 °C to further study thermodynamic relationship between these two anhydrates.
To further study thermodynamic relationship between the two anhydrates solid form Types B and Q, slurry competition experiments were applied in EtOAc/n-heptane at 5 °C/RT/50 °C.
Procedure: Corresponding solvents were pre-saturated with solid form Type Q and filtered to the weighted samples containing solid form Type B and solid form Type Q. After slurry at corresponding temperature for 2~4 days, the wet samples were tested by XRPD.

[5] = Dynamic vapor sorption (DVS) hygroscopicity, with XRPD before and after; settings: for form change before and after DVS test: 25 °C, 0-95% RH, XRPD; for hygroscopicity: from water uptake at 25 °C/80% RH
Method: DVS was measured via a SMS (Surface Measurement Systems) DVS Intrinsic. The relative humidity at 25 °C were calibrated against deliquescence point of LiCl, Mg(NO3)2 and KCl.
DVS was performed on solid form Type B sample (the preparation and characterization results of which were described herein). […] Based on the XRPD overlay shown in FIG. 11, no form change was observed before and after DVS test.
Based on the XRPD overlay shown in FIG. 51, no form change was observed before and after DVS test.

[6] = heated to 120 °C and cooled to RT
[7] = heated to 150 °C and cooled to RT
[8] = heated to 100 °C and cooled to RT
[9] = heated to 175 °C and cooled to RT

In the case of Nc1ncnc2c1c(-c1ccc(NC(=O)Nc3cc(C4(C(F)(F)F)CC4)on3)c(F)c1)cn2C1CC1, the “form conversion on storage” value ([1]; ambient condition, about ~45% RH, overnight) is reported as “could convert to solid form Type L”, the “form change before and after ambient drying” value [1] is reported as “no form change was observed” and the Solubility ([2]; Acetone, room temperature) is reported as “S > 46.0 mg/mL”. For the same compound, the Solubility ([2]; CHCl3, room temperature) was “S > 40.0 mg/mL”, the Solubility ([2]; DCM, room temperature) was “S < 1.3 mg/mL” and the Solubility ([2]; DMAc, room temperature) was “S > 48.0 mg/mL”. The Solubility ([2]; DMSO, room temperature) was “S > 48.0 mg/mL”, the Solubility ([2]; EtOAc, room temperature) was “S > 38.0 mg/mL” and the Solubility ([2]; H2O, room temperature) was “S < 1.0 mg/mL”. For the same compound, the Solubility ([2]; MIBK, room temperature) was “S > 42.0 mg/mL”, the Solubility ([2]; NMP, room temperature) was “S > 50.0 mg/mL” and the Solubility ([2]; THF, room temperature) was “S > 50.0 mg/mL”. For the same compound, the Solubility ([2]; Toluene, room temperature) was “S < 1.1 mg/mL”, the Solubility ([2]; n-Heptane, room temperature) was “S < 1.2 mg/mL” and the “form change (VT-XRPD)” value ([3]; N2 sweeping, finished when heated to 100 °C) was “form change from solid form Type A into another new form, named as solid form Type O”. The “form change after heating” value ([3]; heated to 115 °C and cooled to RT) was “no form change was observed”, the “change on heating (VT-XRPD)” value ([3]; heated to 120 °C) was “decrease of crystallinity was observed” and the “change on heating (VT-XRPD)” value ([3]; heated to 175 °C) was “amorphization was observed”.
For Nc1ncnc2c1c(-c1ccc(NC(=O)Nc3cc(C4(C(F)(F)F)CC4)on3)c(F)c1)cn2C1CC1 [solid form Type F], the “form change before and after ambient drying” value [1] was “no form change was observed”, the “form change after heating” value [3, 6] was “no form change was observed” and the “form change after heating” value ([3]; heated to 160 °C and cooled to RT) was “changed to amorphous”.
In the case of Nc1ncnc2c1c(-c1ccc(NC(=O)Nc3cc(C4(C(F)(F)F)CC4)on3)c(F)c1)cn2C1CC1 [solid form Type B], the “slurry competition result (form obtained)” value (“slurry competition result” below) ([4]; 5 °C, EtOAc:n-Heptane (1:1)) is reported as “Type B”, the “slurry competition result” value ([4]; 50 °C, EtOAc:n-Heptane (1:1)) is reported as “Type B” and the “slurry competition result” value ([4]; RT, EtOAc:n-Heptane (1:1)) is reported as “Type B”. The “slurry competition result” value ([4]; RT, EtOAc:n-Heptane (1:2)) was “Type B”, the “slurry competition result” value ([4]; RT, EtOAc:n-Heptane (2:1)) was “Type B” and the “form change before and after DVS test” value [5] was “no form change was observed”. For the same compound, the water uptake ([5]; 25 °C/80% RH) was “lower than 0.2 wt %”, the hygroscopicity [5] was “nearly non-hygroscopic” and the “form change before and after ambient drying” value [1] was “no form change was observed”. For the same compound, the “form change after heating” value [3, 7] was “no form change was observed”.
In the case of Nc1ncnc2c1c(-c1ccc(NC(=O)Nc3cc(C4(C(F)(F)F)CC4)on3)c(F)c1)cn2C1CC1 [solid form Type H], the “form change after heating” value [3, 7] is reported as “changed to amorphous”.
In the case of Nc1ncnc2c1c(-c1ccc(NC(=O)Nc3cc(C4(C(F)(F)F)CC4)on3)c(F)c1)cn2C1CC1 [solid form Type I], the “form change before and after ambient drying” value [1] is reported as “no form change was observed” and the “form change after heating” value [3, 8] is reported as “form change was observed”.
With Nc1ncnc2c1c(-c1ccc(NC(=O)Nc3cc(C4(C(F)(F)F)CC4)on3)c(F)c1)cn2C1CC1 [solid form Type L] the “form change after heating” value [3, 8] was “form change to solid form Type J was observed”.
For Nc1ncnc2c1c(-c1ccc(NC(=O)Nc3cc(C4(C(F)(F)F)CC4)on3)c(F)c1)cn2C1CC1 [solid form Type G], the “form change before and after ambient drying” value [1] was “no form change was observed” and the “form change after heating” value [3, 9] was “changed to amorphous”.
In the case of Nc1ncnc2c1c(-c1ccc(NC(=O)Nc3cc(C4(C(F)(F)F)CC4)on3)c(F)c1)cn2C1CC1 [solid form Type D], the “form change before and after ambient drying” value [1] is reported as “no form change was observed” and the “form change after heating” value [3, 9] is reported as “amorphization was observed”.
For Nc1ncnc2c1c(-c1ccc(NC(=O)Nc3cc(C4(C(F)(F)F)CC4)on3)c(F)c1)cn2C1CC1 [solid form Type Q], the “form change before and after DVS test” value [5] was “no form change was observed”, the hygroscopicity [5] was “slightly hygroscopic” and the “form change before and after ambient drying” value [1] was “no form change was observed”. The “form change after heating” value [3, 7] was “no form change was observed”.
In the case of Nc1ncnc2c1c(-c1ccc(NC(=O)Nc3cc(C4(C(F)(F)F)CC4)on3)c(F)c1)cn2C1CC1 [solid form Type K], the “form change before and after ambient drying” value [1] is reported as “no form change was observed” and the “form change after heating” value [3, 6] is reported as “severe decrease in crystallinity was observed”.
